Measured values: ChEMBL document CHEMBL1128307, “2-Aralkynyl and 2-heteroalkynyl derivatives of adenosine-5'-N-ethyluronamide as selective A2a adenosine receptor agonists” (J Med Chem, 1995)

Protein sequences, listed by entry. Tags and fused reporters are not part of them.
UniProt P25099, whole entry: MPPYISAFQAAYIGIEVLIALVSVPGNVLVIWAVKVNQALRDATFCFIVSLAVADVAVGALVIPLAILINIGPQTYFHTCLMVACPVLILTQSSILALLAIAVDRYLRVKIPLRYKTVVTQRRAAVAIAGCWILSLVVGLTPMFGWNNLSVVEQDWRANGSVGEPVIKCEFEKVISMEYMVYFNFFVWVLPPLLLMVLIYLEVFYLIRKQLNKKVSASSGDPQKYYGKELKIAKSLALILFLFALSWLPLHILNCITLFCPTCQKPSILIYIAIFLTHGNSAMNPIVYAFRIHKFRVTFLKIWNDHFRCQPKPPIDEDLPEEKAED

Assays:
[1] = target: T1, Adenosine receptor A1 (Rattus norvegicus, UniProt P25099); experiment: Functional activity against adenosine A1 receptor from rat atria.
[2] = target: T1, Adenosine receptor A1

EC50 [1]: > 10 µM
Ki [2]: 0.569 µM
Structure (SMILES): CCNC(=O)[C@H]1O[C@@H](n2cnc3c(N)nc(NCCc4ccc(CCC(=O)O)cc4)nc32)[C@H](O)[C@@H]1O [CGS-21680]
